According to publication PMC6050272, “A TRAF3-NIK module differentially regulates DNA vs RNA pathways in innate immune signaling” (Nature Communications, 2018):

Target: the molecule itself
Assay: semi-native SDS PAGE; whole-cell lysates of HEK 293T cells transfected with HA-STING with or without NIK; native sample buffer without β-mercaptoethanol, not boiled, run on SDS gels; immunoblot

B1: stimulator of interferon genes (STING), epitope-tagged (HA-STING; Myc-STING) (natural protein, UniProt Q86WV6 1-379, looked up)
chain: MPHSSLHPSIPCPRGHGAQKAALVLLSACLVTLWGLGEPPEHTLRYLVLHLASLQLGLLLNGVCSLAEELRHIHSRYRGSYWRTVRACLGCPLRRGALLLLSIYFYYSLPNAVGPPFTWMLALLGLSQALNILLGLKGLAPAEISAVCEKGNFNVAHGLAWSYYIGYLRLILPELQARIRTYNQHYNNLLRGAVSQRLYILLPLDCGVPDNLSMADPNIRFLDKLPQQTGDHAGIKDRVYSNSIYELLENGQRAGTCVLEYATPLQTLFAMSQYSQAGFSREDRLEQAKLFCRTLEDILADAPESQNNCRLIAYQEPADDSSFSLSQEVLRHLRQEEKEEVTVGSLKTSAVPSTSTMSQEPELLISGMEKPLPLRTDFS
notes: STING (TMEM173); the plasmid is 'described elsewhere'; Each copy carries one tag only: HA-STING or Myc-STING; also called TMEM173; MPYS; source: HEK 293T, co-transfected, in lysate
  stoichiometry N: 2
